Measured values as given in patent US11260049B2, “TRPV4 antagonists” (GlaxoSmithKline Intellectual Property (No. 2) Limited, priority 2016, dated 2022).

Protein sequences, listed by entry. Tags and fused reporters are not part of them.
UniProt Q9HBA0, whole entry: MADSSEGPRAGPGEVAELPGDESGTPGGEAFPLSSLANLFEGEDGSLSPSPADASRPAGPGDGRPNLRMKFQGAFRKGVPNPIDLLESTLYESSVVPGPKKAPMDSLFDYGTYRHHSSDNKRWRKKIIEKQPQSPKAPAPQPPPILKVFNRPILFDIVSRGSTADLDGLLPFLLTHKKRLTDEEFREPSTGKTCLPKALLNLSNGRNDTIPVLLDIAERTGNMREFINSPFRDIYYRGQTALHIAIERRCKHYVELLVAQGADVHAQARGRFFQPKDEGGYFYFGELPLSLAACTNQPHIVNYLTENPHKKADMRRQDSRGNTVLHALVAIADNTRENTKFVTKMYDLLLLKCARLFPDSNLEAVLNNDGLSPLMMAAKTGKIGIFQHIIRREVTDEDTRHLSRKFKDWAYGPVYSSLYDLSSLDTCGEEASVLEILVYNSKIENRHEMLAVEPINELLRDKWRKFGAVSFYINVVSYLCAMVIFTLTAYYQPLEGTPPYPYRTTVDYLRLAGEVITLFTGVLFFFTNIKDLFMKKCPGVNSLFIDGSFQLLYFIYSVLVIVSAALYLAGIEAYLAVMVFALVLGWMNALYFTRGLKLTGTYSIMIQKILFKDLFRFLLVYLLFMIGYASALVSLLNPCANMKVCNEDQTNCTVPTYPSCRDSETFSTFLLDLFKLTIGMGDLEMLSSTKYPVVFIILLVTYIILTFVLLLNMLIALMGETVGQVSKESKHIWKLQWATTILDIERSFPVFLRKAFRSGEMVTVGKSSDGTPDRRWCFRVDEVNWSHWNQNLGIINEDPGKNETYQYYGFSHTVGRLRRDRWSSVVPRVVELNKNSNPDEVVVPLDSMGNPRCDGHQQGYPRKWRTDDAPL

Target: human TRPV4 (Homo sapiens (Human), UniProt Q9HBA0)
Assay: FLIPR assay for hTRPV4 expressed in BHK cells
Assay type: cell-based
Description: FLIPR Assay for hTRPV4 Expressed in BHK Cells:
TRPV4 channel activation results in an influx of divalent and monovalent cations including calcium. The resulting changes in intracellular calcium were monitored using a calcium specific fluorescent dye Fluo-4 (MDS Analytical Technologies). BHK/AC9 cells transduced with BacMam virus expressing the human TRPV4 gene at a MOI of 78 were plated in a 384 well poly-D lysine coated plate (15,000 cells/well in 50 μL culture medium containing DMEM/F12 with 15 mM HEPES, 10% FBS, 1% Penicillin-Streptomycin and 1% L-glutamine). Cells were incubated for 24 hours at 37° C. and 5% CO2. Culture medium was then aspirated using a Tecan plate-washer and replaced with 20 μL/well of dye loading buffer: HBSS, 500 μM Brilliant Black (MDS Analytical Technologies), and 2 μM Fluo-4 AM. Dye loaded plates were then incubated in the dark at room temperature for 1˜1.5 hours.

## N#Cc1ccc(S(=O)(=O)N2C[C@H](S(=O)(=O)c3ccc(Cl)cc3)[C@@](O)(CN)C2)c(Cl)c1 [Example 122, 4-(((3R,4S)-3-(aminomethyl)-4-((4-chlorophenyl)sulfonyl)-3-hydroxypyrrolidin-1-yl)sulfonyl)-3-chlorobenzonitrile]
  IC50: 0.1 to 10 nM

## N#Cc1ccc(S(=O)(=O)N2C[C@H](S(=O)(=O)c3ccc(Cl)cc3)[C@](O)(CN)C2)c(Cl)c1 [Example 123, 4-(((3S,4S)-3-(aminomethyl)-4-((4-chlorophenyl)sulfonyl)-3-hydroxypyrrolidin-1-yl)sulfonyl)-3-chlorobenzonitrile]
  IC50: 0.1 to 10 nM
